Activity change, negative = cytotoxicity data for 18 compounds are collected here from PubChem BioAssay (Tox21).

Where “and” joins values, the source holds several entries; their conditions need not be identical. Equal entries are not always repeated. Only a part is listed here, and it is no random draw. Inconclusive results are not listed. Calls of active or inactive are those of the source. Calls come from the whole dose curve.
% is set by controls: 0 for no effect and ±100 for the full control effect.

A short description of one assay: p53 small molecule agonists, cell-based qHTS assay with rat liver microsomes: qHTS cell viability counter screen (AID 1963580). Note: nearly all actives have a fitted effect of over 45% in size. Particulars: p53RE-bla HCT-116 + rat microsomes, ATP viability, 16 h; at 30.3 µM (top of the series). The text has this: National Center for Advancing Translational Sciences [NCATS]
Division of Preclinical Innovation [DPI]
U.S. Environmental Protection Agency [EPA]
National Institutes of Environmental Health Sciences [NIEHS]
National Toxicology Program [NTP]
U.S. Food and Drug Administration [FDA]
p53, a tumor suppressor protein, is activated following cellular insult, including DNA damage and other cellular stresses. The activation of p53 regulates cell fate by inducing DNA repair, cell cycle arrest, apoptosis, or cellular senescence. The activation of p53, therefore, is a good indicator of DNA damage and other cellular stresses. The CellSensor p53RE-bla HCT-116 cell line contains a stably integrated beta-lactamase reporter gene under control of the p53 response elements. The activation of the reporter gene under culture conditions can be detected by fluorescence intensity. This cell line was used to screen the Tox21 10K compound library in the condition of presence of rat liver microsomes and to identify agonists that activate the p53 signaling pathway after in vitro metabolic activation (Ooka et al., Archive of Toxicology 96:1975-1987, 2022). The cytotoxicity of the Tox21 compound library against the p53 RE-bla HCT-116 cell line was tested in parallel by measuring the intra cellular ATP content in the same wells.
Tox21 Assay Protocol Summary:
The p53RE-bla cells were dispensed at 4,000cells/3ul/well in 1536-well black-clear bottom plates. After the assay plates were incubated at 37 C, 5% CO2 incubator for 5 hours, 23 nL of compounds dissolved in DMSO, positive controls or DMSO only was transferred to the assay plate. Following compound addition, 3 uL of rat liver microsomes (Molecular Toxicology, Boone, NC) at final concentration of 0.5 mg/mL and 1uL of B-Nicotinamide adenine dinucleotide 2'-phosphate (NADPH) at final concentration of 0.5 mg/mL were transferred to the assay plate. The plates were incubated at 37 C for 16 hours. 1 uL of LiveBLAzer detection mixture was added to each well and the plates were incubated at room temperature in the dark for 2 h. Fluorescence intensity at 460 and 530 nm emission and 405 nm excitation were measured by an Envision plate reader. For cell viability readout that measures cytotoxicity, 4 ul/well of CellTiter-Glo reagent was added into the assay plates using a Flying Reagent Dispenser. After 30 min incubation at room temperature, the luminescence intensity in the plates was measured using a ViewLux plate reader.
(Quantitative high-throughput screening tests each substance at several concentrations.)
Regarding `CCOP(=O)(CC)Oc1ccc([N+](=O)[O-])cc1` (centres undefined), the activity change, negative = cytotoxicity is inactive: 0.484%.

With `C/C1=C2N=C(/C=C3N=C(/C(C)=C4\[N-][C@@](C)([C@@H]5N=C1[C@](C)(CCC(=O)NC[C@@H](C)OP(=O)([O-])O[C@H]1[C@@H](O)[C@@H](n6cnc7cc(C)c(C)cc76)O[C@@H]1CO)[C@H]5CC(N)=O)[C@@](C)(CC(N)=O)[C@@H]4CCC(N)=O)[C@@](C)(CC(N)=O)[C@@H]\3CCC(N)=O)C(C)(C)[C@@H]/2CCC(N)=O.[C-]#N.[Co+3]`, the activity change, negative = cytotoxicity is inactive: -11.4%. As to `OCCSCCO`, the activity change, negative = cytotoxicity was inactive: 1.25%.

The assay is the same for the next values; noted with them: p53RE-bla HCT-116 + rat microsomes, ATP viability, 16 h; at 66 µM (top of the series).
With `COc1ccc([N+](=O)[O-])cc1[N+](=O)[O-]`, the activity change, negative = cytotoxicity is inactive: 3.79%. Take `N=C(N)N[N+](=O)[O-]`: the activity change, negative = cytotoxicity was inactive: 6.97%.

Take `COP(C)(=O)OC`: the activity change, negative = cytotoxicity was inactive: -23.2% and inactive: 6.21%. For `Nc1cc([N+](=O)[O-])cc([N+](=O)[O-])c1O`, the activity change, negative = cytotoxicity was inactive: -10.5%. As for `Cc1ccc([N+](=O)[O-])cc1[N+](=O)[O-]`, the activity change, negative = cytotoxicity was inactive: -4.7% and inactive: 4.18%. In the case of `Cc1c([N+](=O)[O-])cccc1[N+](=O)[O-]`, the activity change, negative = cytotoxicity is inactive: 0.0296% and inactive: -3.47%.

Turning to `CP(=O)(O)OCCC[Si](O)(O)O`, the activity change, negative = cytotoxicity was inactive: 6.69%. On to `CCN(CC)CCCl`, for which the activity change, negative = cytotoxicity is inactive: -1.04%. Consider `O=[N+]([O-])[O-].[NH4+]`, for which the activity change, negative = cytotoxicity was inactive: 0.728% and inactive: 0.396%. In the case of `N#CBr`, the activity change, negative = cytotoxicity is inactive: 2.32%. As for `CN(C)CCCl`, the activity change, negative = cytotoxicity was inactive: -2.24%. Still for that read-out and setting: under `CC(C)N(CCO)C(C)C` stands inactive: -9.04%. For the compound `OCCSCCO`, the activity change, negative = cytotoxicity was inactive: -7.02%. Regarding `[NH4+].[O-][Cl+3]([O-])([O-])[O-]`, the activity change, negative = cytotoxicity is inactive: 12.3% and inactive: 0.608%.

For `CCOP(=O)(CC)OCC`, the activity change, negative = cytotoxicity was inactive: 2.16%. On the same count and under the same terms, to `O=[N+]([O-])OCC(CO[N+](=O)[O-])(CO[N+](=O)[O-])CO[N+](=O)[O-]` belongs inactive: 18.3%.
